SMILES strings stand for the structures.

Protein sequences, listed by entry. Tags and fused reporters are not part of them.
UniProt P41145, whole entry: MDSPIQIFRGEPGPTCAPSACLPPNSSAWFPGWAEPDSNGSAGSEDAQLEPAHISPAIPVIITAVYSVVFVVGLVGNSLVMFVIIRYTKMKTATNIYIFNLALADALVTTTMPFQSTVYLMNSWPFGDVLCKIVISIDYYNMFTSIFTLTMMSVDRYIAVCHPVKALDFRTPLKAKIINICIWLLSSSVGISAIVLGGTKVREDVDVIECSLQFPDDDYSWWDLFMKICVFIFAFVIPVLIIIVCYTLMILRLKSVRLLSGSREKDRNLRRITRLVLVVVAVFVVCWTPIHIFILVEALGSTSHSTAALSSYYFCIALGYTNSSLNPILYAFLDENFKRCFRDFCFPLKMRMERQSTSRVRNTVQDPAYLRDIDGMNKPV

What is called inhibition is the share of the control response that was lost under treatment.

The experiment deals with Kappa-type opioid receptor (Homo sapiens) (UniProt P41145). Put plainly: Inhibition of kappa opioid receptor at 1 uM.

For `Cc1ccc2[nH]c(=O)n(C3CCN(C4CCOCC4)CC3)c2c1`, the inhibition stood at 40%. `Cc1cc2c(cc1F)[nH]c(=O)n2C1CCN(C2CCOCC2)CC1` returned an inhibition of 53%.

For the origin of these results see ChEMBL document CHEMBL2146410, “Novel N-Substituted Benzimidazolones as Potent, Selective, CNS-Penetrant, and Orally Active M1 mAChR Agonists” (ACS Med Chem Lett, 2010).
